Laboratory results as given in patent EP1614683B1, “Indazole compounds and pharmaceutical compositions for inhibiting protein kinases, and methods for their use” (priority 1999, dated 2001).

Target: CDK2/Cyclin A complex (Homo sapiens, UniProt P24941)
Assay: CDK2/Cyclin A assay ([32P]ATP incorporation into Rb fragment)
Assay type: biochemical
Conditions: read-out: CDK2* (Ki); Table 2

## CCOCc1cc(O)c(OC)cc1-c1ccc2c(-c3nc4ccccc4[nH]3)n[nH]c2c1 [Reference Example 24(l), 3-1H-Benzoimidazol-2-yl-6-(2-(ethoxymethyl)-5-methoxy-4-hydroxy-phenyl)-1H-indazole]
  Ki: 55 nM
